Assay results: patent US6509161B1, “Green fluorescent protein” (Gentronix Limited, priority 2000, dated 2003)

Assays:
[1] = test system: FY73; details: 0.005% v/v MMS; GM FY73; exposed versus unexposed culture brightness
[2] = test system: FF18984; details: 0.005% v/v MMS; GM FF18984; exposed versus unexposed culture brightness
[3] = test system: YJL047c; details: 0.005% v/v MMS; GM YJL047c; exposed versus unexposed culture brightness

With COS(C)(=O)=O [MMS, methyl methanesulfonate] the “induction ratio, as measured by fluorescence polarisation” value (from here on “induction ratio, as measured”) [1] was 1.94, the “induction ratio, as measured” value [2] was 5.40 and the “induction ratio, as measured” value [3] was 2.39.
